Reference: patent US10329299B2, “Heterocyclic compounds and uses thereof” (Infinity Pharmaceuticals, Inc., priority 2013, dated 2019)

Sequences of proteins named here, by UniProt entry; tags and fusion partners are left off. A change or cut given only in a name is not applied to a line headed by its entry.
UniProt P42336, whole entry: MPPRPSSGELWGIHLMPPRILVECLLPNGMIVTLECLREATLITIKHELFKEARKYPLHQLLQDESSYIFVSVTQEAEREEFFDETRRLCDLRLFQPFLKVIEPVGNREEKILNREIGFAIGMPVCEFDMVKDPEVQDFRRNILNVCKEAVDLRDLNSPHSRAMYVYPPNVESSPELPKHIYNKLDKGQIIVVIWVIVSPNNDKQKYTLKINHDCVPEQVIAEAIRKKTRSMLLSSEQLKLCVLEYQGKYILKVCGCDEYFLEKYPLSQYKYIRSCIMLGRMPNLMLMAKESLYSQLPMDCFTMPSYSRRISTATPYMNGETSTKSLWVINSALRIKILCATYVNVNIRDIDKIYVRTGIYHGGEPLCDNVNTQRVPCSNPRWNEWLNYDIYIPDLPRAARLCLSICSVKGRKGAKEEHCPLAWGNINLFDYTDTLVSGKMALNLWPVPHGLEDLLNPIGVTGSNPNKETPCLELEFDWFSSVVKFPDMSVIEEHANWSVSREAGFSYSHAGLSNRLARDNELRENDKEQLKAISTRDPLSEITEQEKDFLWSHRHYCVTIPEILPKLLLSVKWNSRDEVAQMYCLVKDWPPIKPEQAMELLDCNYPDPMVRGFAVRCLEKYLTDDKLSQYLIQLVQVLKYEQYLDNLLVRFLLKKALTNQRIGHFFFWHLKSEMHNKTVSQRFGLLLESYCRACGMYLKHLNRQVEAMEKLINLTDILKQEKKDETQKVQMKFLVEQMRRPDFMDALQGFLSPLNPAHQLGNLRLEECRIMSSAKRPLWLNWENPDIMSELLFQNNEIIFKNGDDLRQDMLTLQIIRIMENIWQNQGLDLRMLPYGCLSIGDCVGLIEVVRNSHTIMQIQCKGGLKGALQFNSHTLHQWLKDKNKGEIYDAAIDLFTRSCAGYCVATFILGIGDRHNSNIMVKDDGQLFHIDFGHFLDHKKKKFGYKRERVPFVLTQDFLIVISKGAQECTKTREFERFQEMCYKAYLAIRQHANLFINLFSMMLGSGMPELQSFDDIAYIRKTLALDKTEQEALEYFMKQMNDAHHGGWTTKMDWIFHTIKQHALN
UniProt P42338, whole entry: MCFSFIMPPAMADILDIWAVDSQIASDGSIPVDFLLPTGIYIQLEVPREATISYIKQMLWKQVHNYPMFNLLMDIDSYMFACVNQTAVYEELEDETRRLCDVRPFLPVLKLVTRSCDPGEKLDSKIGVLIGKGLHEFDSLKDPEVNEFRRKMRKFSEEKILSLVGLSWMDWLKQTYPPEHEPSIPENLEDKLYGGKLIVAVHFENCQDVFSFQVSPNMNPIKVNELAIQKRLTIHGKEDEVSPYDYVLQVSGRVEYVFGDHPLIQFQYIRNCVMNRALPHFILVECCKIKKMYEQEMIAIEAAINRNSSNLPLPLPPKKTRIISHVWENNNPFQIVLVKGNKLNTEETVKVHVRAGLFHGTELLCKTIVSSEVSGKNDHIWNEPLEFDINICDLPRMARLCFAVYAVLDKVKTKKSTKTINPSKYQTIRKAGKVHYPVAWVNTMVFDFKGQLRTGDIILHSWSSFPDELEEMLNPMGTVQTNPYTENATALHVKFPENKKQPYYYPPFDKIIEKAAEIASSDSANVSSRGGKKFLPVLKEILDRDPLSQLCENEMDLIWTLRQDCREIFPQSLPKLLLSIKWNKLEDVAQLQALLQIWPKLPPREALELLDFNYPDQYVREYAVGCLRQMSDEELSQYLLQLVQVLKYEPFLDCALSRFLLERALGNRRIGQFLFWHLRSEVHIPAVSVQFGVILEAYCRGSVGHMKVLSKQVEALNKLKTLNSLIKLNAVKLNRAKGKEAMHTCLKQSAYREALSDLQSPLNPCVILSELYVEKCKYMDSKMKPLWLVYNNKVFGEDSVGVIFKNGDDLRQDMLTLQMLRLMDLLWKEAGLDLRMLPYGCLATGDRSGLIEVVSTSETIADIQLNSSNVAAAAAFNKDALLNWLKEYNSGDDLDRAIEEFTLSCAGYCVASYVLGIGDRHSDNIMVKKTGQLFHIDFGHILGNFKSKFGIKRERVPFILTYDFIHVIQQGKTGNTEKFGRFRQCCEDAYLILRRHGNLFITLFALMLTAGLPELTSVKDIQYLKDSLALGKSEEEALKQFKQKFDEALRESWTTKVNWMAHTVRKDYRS
UniProt O00329, whole entry: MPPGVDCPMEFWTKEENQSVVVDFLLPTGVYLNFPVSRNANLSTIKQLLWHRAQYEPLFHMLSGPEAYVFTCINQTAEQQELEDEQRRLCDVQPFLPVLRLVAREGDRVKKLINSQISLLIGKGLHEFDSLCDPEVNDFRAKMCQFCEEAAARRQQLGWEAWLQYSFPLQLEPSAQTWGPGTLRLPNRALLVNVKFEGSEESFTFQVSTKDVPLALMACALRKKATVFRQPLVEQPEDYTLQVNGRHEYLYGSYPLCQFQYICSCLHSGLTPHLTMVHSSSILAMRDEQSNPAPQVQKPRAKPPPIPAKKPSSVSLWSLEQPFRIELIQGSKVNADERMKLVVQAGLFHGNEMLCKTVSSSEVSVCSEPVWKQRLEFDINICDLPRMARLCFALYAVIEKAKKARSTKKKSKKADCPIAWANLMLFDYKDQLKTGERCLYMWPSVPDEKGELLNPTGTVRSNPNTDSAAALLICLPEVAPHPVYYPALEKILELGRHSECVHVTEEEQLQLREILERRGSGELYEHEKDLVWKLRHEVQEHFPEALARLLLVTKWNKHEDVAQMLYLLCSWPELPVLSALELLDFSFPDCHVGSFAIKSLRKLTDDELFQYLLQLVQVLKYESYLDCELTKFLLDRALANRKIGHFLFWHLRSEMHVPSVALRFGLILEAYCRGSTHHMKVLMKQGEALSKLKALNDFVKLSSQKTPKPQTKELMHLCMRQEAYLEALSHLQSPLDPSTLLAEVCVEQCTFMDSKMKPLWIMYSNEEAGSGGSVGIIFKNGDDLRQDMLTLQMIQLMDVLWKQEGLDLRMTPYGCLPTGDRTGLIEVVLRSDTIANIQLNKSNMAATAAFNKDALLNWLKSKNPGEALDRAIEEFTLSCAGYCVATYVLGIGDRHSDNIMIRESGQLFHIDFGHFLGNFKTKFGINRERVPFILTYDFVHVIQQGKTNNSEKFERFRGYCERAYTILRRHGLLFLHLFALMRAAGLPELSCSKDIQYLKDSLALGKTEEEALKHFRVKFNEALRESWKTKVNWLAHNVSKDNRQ
UniProt P48736, whole entry: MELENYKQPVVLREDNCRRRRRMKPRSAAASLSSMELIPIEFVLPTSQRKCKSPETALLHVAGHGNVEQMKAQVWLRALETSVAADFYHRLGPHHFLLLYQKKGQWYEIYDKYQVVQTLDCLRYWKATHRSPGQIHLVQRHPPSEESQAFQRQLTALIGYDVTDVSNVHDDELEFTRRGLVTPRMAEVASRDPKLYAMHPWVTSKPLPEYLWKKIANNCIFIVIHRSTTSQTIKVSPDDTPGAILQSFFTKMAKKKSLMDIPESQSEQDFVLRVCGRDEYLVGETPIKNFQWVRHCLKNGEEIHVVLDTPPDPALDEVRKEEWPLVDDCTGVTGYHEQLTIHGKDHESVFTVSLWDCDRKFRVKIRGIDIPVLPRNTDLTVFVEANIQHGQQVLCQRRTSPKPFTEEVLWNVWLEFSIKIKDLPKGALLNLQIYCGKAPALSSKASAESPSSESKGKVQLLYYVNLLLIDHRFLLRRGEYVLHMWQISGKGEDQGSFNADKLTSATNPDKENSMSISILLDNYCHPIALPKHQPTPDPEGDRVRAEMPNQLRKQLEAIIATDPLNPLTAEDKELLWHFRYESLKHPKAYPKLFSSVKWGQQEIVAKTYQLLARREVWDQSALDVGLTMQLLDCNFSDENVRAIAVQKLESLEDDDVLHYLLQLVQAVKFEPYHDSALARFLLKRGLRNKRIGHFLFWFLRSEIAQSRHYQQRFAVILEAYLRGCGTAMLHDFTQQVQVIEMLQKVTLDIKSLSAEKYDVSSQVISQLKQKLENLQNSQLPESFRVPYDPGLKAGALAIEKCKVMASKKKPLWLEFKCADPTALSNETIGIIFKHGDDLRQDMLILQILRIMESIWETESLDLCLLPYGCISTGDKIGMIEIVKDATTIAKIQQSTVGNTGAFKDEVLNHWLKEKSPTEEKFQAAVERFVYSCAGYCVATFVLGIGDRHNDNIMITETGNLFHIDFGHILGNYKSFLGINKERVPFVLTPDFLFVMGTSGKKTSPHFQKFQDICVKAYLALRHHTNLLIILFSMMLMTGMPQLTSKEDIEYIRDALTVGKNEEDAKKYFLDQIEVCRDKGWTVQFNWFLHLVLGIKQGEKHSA
UniProt P27986, whole entry partner: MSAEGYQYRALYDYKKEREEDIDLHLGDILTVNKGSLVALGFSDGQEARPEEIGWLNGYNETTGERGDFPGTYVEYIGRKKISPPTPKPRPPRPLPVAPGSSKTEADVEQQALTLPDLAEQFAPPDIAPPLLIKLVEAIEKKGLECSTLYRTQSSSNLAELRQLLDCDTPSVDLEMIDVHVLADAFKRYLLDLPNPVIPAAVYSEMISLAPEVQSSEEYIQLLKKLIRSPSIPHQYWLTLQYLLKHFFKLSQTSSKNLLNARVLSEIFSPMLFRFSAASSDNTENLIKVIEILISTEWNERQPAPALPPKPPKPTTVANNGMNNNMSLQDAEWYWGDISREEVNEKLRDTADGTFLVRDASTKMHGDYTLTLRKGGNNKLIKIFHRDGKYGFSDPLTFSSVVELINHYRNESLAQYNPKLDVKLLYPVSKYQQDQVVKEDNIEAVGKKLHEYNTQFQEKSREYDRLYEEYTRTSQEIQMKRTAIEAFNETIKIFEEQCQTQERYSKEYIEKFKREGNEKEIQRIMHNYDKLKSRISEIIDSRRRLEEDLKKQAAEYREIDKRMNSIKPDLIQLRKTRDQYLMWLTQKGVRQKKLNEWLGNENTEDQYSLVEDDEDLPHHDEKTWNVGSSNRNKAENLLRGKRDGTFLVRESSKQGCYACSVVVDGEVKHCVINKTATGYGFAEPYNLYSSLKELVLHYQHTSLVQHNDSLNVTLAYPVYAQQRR

Experiments:
Assay type in all cases: biochemical
[1] = biological target: α isoform of human Class I PI3 kinases (Homo sapiens (Human), UniProt P42336); assay: PI3-Kinase Promega ADP-Glo Max assay, α isoform; conditions: read-out: PI3K α IC50
[2] = biological target: β isoform of human Class I PI3 kinases (Homo sapiens (Human), UniProt P42338); assay: PI3-Kinase Promega ADP-Glo Max assay, β isoform; conditions: read-out: PI3K β IC50
[3] = biological target: δ isoform of human Class I PI3 kinases (Homo sapiens (Human), UniProt O00329); assay: PI3-Kinase Promega ADP-Glo Max assay, δ isoform; conditions: read-out: PI3K δ IC50
[4] = biological target: γ isoform of human Class I PI3 kinases (Homo sapiens (Human), UniProt P48736); assay: PI3-Kinase Promega ADP-Glo Max assay, γ isoform

IC50 [1]: 5 to 10 µM
IC50 [2]: 5 to 10 µM
IC50 [3]: 5 to 10 µM
PI3K δ/PI3K γ IC50 (selectivity) ([4]; ratio of PI3K δ IC50 to PI3K γ IC50): X (X = 10 to <50)
IC50 ([4]; read-out: PI3K γ IC50): 100 to 500 nM
SMILES: Cc1ccnc2c(C(=O)N[C@@H](C)c3cc4cccc(C#Cc5cnn(C)c5)c4c(=O)n3-c3ccccc3)c(N)nn12
